Laboratory results from patent publication US20100239556A1, “PROMOTING ECM PRODUCTION BY FIBROBLAST CELLS AND/OR PROMOTING MIGRATION OF FIBROBLAST CELLS IN A BIOLOGICAL SYSTEM” (TGR BioScience Pty Ltd., priority 2006, published 2010).

Test system: human foreskin fibroblast cells (HFF)
Experiment: Soluble collagen I, III and VI in HFF conditioned media (direct coat ELISA)
Type: cell-based
Conditions: 72 hours
Experimental: Primary human foreskin fibroblast cells (HFF) were seeded into 96 well plates at a density of 1.2×10^4 cells/well and cultured overnight in 10% fetal bovine serum/Dulbecco's minimum essential media (10% FBS/DMEM) at 37° C. and 5% CO2. The cells were then starved overnight in serum free DMEM and triplicate wells treated for six hours with a range of doses of proteins with peroxidase activity; horse radish peroxidase (HRP; 0.2-50 ug/ml), Arthromyces ramosus peroxidase (ARP; 0.2-50 ug/ml), microperoxidase (MP; 8-500 ug/ml), soy bean peroxidase (SBP; 0.2-100 ug/ml) and lactoperoxidase (LP; 10-310 ug/ml) (all obtained from Sigma-Aldrich). At the end of the six hour treatment period, the media was aspirated and replaced with fresh serum free DMEM and the cells cultured for a further 72 hours. […] Briefly, cells were bathed in a 10% Alamar Blue/phosphate-buffered saline (PBS) solution for 30-60 minutes and fluorescence measured at wavelengths of 485 nm excitation and 595 nm emission using a Wallac Victor Multilabel HTS counter. Relative fluorescent units (RFU) for each sample were normalized to control wells (DMEM only treated cells) and data expressed as mean±standard error of the mean (sem) for triplicate wells. […]

Substance: recombinant ascorbate peroxidase [APX]
- increase in collagen I production (5 μg/ml): 1.4 fold
- increase in collagen I production (175 μg/ml): 3.9 fold
